The test concerns the target T1, hexokinase II (HKII) (Homo sapiens, UniProt P52789).
T1 construct: gene HK2; recombinant HKII expressed in E. coli, first 16 aa from the N-terminal removed
T1 sequence (P52789 17-917): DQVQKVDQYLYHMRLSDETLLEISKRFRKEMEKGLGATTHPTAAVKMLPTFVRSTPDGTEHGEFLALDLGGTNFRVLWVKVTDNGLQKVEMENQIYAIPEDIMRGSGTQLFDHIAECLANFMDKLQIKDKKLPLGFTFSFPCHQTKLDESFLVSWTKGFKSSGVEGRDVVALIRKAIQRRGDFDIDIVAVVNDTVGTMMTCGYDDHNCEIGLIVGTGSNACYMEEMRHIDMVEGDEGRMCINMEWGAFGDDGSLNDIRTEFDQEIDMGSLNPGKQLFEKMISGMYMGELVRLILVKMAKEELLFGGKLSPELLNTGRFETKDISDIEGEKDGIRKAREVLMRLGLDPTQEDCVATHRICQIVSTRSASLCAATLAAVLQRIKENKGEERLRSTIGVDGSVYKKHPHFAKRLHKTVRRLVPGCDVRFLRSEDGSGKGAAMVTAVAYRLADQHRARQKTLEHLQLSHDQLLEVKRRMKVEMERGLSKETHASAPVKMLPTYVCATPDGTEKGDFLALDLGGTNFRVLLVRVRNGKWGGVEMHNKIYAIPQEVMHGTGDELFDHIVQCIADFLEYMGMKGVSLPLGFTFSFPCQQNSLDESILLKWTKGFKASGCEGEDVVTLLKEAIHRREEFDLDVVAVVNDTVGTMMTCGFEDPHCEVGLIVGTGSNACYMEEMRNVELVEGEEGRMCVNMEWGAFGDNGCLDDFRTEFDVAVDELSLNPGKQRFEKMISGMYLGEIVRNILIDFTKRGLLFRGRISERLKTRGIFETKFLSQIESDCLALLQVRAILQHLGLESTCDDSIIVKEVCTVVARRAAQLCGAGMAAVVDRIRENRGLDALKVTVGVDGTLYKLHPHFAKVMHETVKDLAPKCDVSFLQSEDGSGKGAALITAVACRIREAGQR
As to the kind of experiment: […] NMR CPMG transverse relaxation titration. The class given is binding.

Our source for the Kd values is article PMC11504489, “Potent Biological Activity of Fluorinated Derivatives of 2-Deoxy-D-Glucose in a Glioblastoma Model” (Biomedicines, 2024).

Regarding `OC[C@H]1OC(O)[C@H](F)[C@@H](O)[C@@H]1O` (mixture of isomers) [2-FG, 2-deoxy-2-fluoro-D-glucopyranose], binding was put at a Kd of 760 ± 190 µM.
